Experimental data from PMC3152585 (Dental materials : official publication of the Academy of …, 2011).
Marks after values point to notes of the source that are not given here.

The chains behind the UniProt entries cited, without tags or fusion partners. Residues count along the entry.
UniProt P14780, 107-707 limits assumed: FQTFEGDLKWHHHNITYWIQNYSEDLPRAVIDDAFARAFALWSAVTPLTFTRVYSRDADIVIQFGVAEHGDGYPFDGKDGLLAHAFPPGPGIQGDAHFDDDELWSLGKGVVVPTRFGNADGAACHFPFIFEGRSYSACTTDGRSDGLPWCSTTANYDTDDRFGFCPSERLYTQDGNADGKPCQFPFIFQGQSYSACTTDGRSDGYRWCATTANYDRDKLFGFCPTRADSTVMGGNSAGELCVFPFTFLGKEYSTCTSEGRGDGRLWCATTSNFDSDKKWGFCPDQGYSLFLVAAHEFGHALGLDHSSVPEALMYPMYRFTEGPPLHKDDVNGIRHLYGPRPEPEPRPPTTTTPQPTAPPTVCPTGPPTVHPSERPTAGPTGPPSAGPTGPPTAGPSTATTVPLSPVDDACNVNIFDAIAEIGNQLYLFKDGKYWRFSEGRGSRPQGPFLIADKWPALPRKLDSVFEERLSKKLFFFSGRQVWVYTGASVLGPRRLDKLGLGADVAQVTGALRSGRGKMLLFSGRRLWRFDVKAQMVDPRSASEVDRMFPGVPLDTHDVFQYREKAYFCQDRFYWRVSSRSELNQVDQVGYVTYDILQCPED

Target: recombinant human MMP-9 (rhMMP-9) (Homo sapiens, UniProt P14780)
Experiment: Sensolyte Generic MMP colorimetric assay with soluble rhMMP-9
Conditions: from regression of percent inhibition vs alcohol concentration; mean ± SEM, n=5

## CCCCCO [1-pentanol]
  IC50 (moles/L) for rhMMP-9: 1.7 ± 0.04%^c moles/L
